The target of the assay is α-synuclein (αS) (Homo sapiens, UniProt P37840). Nature of the assay: seeded aggregation kinetics (ThT fluorescence), secondary nucleation assay, pH […] °C. The class given is biochemical. Particulars: read-out: seeded aggregation kinetics (ThT fluorescence), secondary nucleation assay, pH 4.

The structures appear in SMILES notation.

Consider `Cc1ccc(N2NC(=O)C(=Cc3c(O)[nH]c(=O)[nH]c3=O)C2=O)cc1`, for which the IC50 stood at 420 nM.

The record behind these values is article PMC10373478, “Exploration and Exploitation Approaches Based on Generative Machine Learning to Identify Potent Small Molecule Inhibitors of α-Synuclein Secondary Nucleation” (Journal of Chemical Theory and Computation, 2023).
